# Data taken from US20160159816A1, “SUBSTITUTED THIENOPYRIMIDINES AND PHARMACEUTICAL USE THEREOF” (BAYER PHARMA AKTIENGESELLSCHAFT, priority 2013, published 2016).
# Chains of the proteins cited; added tags and fusions are not shown. Residues count along the entry.
# UniProt Q9BUB5, 1-424 isoform 2 T344D: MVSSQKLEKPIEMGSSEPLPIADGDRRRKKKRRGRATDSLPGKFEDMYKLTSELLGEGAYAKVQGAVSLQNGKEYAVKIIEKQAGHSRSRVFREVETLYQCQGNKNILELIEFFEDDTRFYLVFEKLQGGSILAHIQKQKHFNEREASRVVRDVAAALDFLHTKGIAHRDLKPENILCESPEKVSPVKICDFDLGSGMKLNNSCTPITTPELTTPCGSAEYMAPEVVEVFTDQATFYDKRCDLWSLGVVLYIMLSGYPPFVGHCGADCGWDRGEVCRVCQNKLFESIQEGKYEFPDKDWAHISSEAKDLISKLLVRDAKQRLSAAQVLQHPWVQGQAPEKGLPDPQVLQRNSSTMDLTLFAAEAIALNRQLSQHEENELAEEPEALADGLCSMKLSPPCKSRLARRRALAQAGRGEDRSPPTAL
# pIC50: −log10 of the molar value.
# Target: human full-length MKNK1 (Homo sapiens, UniProt Q9BUB5, T385D)
# Experiment: MKNK1 kinase high ATP assay (TR-FRET)
# Details: read-out: MKNK1 IC50; high ATP (2 mM); reference compounds disclosed in WO2005/010008(A1) (Table 1b)
# Description: MKNK1-inhibitory activity at high ATP of compounds of the present invention after their preincubation with MKNK1 was quantified employing the TR-FRET-based MKNK1 high ATP assay as described in the following paragraphs.
# A recombinant fusion protein of Glutathione-S-Transferase (GST, N-terminally) and human full-length MKNK1 (amino acids 1-424 and T344D of accession number BAA 19885.1), expressed in insect cells using baculovirus expression system and purified via glutathione sepharose affinity chromatography, was purchased from Carna Biosciences (product no 02-145) and used as enzyme. As substrate for the kinase reaction the biotinylated peptide biotin-Ahx-IKKRKLTRRKSLKG (C-terminus in amide form) was used, which can be purchased e.g. from the company Biosyntan (Berlin-Buch, Germany).
# For the assay 50 nL of a 100 fold concentrated solution of the test compound in DMSO was pipetted into a black low volume 384 well microtiter plate (Greiner Bio-One, Frickenhausen, Germany), 2 μL of a solution of MKNK1 in aqueous assay buffer [50 mM HEPES pH 7.5, 5 mM MgCl2, 1.0 mM dithiothreitol, 0.005% (v/v) Nonidet-P40 (Sigma)] was added and the mixture was incubated for 15 min at 22° C. to allow pre-binding of the test compounds to the enzyme before the start of the kinase reaction. Then the kinase reaction was started by the addition of 3 μL of a solution of adenosine-tri-phosphate (ATP, 3.3 mM=>final conc. in the 5 μL assay volume is 2 mM) and substrate (0.1 μM=>final conc. in the 5 μL assay volume is 0.06 μM) in assay buffer and the resulting mixture was incubated for a reaction time of 30 min at 22° C. The concentration of MKNK1 was adjusted depending of the activity of the enzyme lot and was chosen appropriate to have the assay in the linear range, typical concentrations were in the range of 0.003 μg/mL. The reaction was stopped by the addition of 5 μL of a solution of TR-FRET detection reagents (5 nM streptavidine-XL665 [Cisbio Bioassays, Codolet, France] and 1 nM anti-ribosomal protein […] (pSer236)-antibody from Invitrogen [#44921G] and 1 nM LANCE EU-W1024 labeled ProteinG [Perkin-Elmer, product no. AD0071]) in an aqueous EDTA-solution (100 mM EDTA, 0.1% (w/v) bovine serum albumin in 50 mM HEPES pH 7.5).
# The resulting mixture was incubated for 1 h at 22° C. to allow the formation of complex between the phosphorylated biotinylated peptide and the detection reagents. Subsequently the amount of phosphorylated substrate was evaluated by measurement of the resonance energy transfer from the Eu-chelate to the streptavidine-XL. Therefore, the fluorescence emissions at 620 nm and 665 nm after excitation at 350 nm were measured in a TR-FRET reader, e.g. a Rubystar (BMG Labtechnologies, Offenburg, Germany) or a Viewlux (Perkin-Elmer). […]
row,pIC50,Structure (SMILES)
1,5.95,OC1CCN(CCC2CCc3c(sc4ncnc(Nc5ccc6c(cnn6Cc6ccccc6)c5)c34)C2)C1 (stereo not shown)
2,4.71,CCOC(=O)CC1CCc2c(sc3ncnc(Nc4ccc5c(cnn5Cc5ccccc5)c4)c23)C1 (stereo not shown)
3,5.85,OCCC1CCc2c(sc3ncnc(Nc4ccc5c(cnn5Cc5ccccc5)c4)c23)C1 (stereo not shown)
4,5.96,CN(C)CCC1CCc2c(sc3ncnc(Nc4ccc5c(cnn5Cc5ccccc5)c4)c23)C1 (stereo not shown)
